System: KMS-11 xenograft tumor
Experiment: In vivo efficacy in KMS-11 cell line-derived xenograft model
Set-up: species or system NOD SCID mouse
Settings: daily dosing of 15 and 30 mg/kg bid in mice

`CC(=O)N1CCN([C@H]2CCC[C@@H](NC(=O)c3cc4c(F)ccc(C)c4[nH]3)C2)CC1` [EZM0414] was tested, and the tolerability was “well-tolerated”.

Reference: publication PMC9290024 (ACS Medicinal Chemistry Letters, 2022)
